# Data reported in US10010560B2, “Small molecule HSP70 inhibitors” (THE TRUSTEES OF THE UNIVERSITY OF PENNSYLVANIA, priority 2014, dated 2018).
# Chains of the proteins cited; added tags and fusions are not shown.
# UniProt P0A6Y8, whole entry: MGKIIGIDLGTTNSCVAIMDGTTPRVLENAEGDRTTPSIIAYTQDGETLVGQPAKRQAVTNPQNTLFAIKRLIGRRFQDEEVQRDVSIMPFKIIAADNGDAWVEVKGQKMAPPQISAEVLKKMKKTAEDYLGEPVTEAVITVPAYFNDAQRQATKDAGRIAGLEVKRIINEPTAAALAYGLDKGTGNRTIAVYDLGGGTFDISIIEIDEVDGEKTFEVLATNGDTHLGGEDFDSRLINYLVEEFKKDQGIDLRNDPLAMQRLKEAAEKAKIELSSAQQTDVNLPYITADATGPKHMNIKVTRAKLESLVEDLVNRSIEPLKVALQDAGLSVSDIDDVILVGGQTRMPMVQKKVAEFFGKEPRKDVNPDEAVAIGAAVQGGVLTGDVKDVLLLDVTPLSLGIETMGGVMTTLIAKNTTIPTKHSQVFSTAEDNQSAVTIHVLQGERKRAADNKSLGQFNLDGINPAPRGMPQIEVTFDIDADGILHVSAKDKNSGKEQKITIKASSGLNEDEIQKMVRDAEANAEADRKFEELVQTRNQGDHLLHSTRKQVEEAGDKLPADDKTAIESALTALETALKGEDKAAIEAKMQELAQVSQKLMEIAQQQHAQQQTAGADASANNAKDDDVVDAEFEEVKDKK
# UniProt P0DMV8, whole entry E110D: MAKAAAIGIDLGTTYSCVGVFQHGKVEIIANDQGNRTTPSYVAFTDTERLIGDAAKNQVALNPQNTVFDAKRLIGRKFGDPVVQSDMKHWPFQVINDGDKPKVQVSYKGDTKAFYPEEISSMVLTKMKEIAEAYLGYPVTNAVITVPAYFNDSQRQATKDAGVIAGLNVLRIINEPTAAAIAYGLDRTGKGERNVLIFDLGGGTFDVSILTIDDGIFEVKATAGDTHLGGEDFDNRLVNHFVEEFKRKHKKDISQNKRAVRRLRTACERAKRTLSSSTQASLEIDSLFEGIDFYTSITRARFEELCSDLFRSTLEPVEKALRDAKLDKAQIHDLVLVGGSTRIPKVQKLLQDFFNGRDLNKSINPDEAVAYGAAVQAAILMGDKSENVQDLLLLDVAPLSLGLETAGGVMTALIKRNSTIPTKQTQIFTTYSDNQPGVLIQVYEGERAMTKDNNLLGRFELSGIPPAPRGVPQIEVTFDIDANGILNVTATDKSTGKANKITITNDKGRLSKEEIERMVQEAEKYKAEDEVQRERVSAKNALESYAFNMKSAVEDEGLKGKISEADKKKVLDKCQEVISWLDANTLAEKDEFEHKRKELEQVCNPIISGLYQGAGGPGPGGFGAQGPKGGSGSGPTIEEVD
# UniProt P0DMV8, whole entry E110D/D506A: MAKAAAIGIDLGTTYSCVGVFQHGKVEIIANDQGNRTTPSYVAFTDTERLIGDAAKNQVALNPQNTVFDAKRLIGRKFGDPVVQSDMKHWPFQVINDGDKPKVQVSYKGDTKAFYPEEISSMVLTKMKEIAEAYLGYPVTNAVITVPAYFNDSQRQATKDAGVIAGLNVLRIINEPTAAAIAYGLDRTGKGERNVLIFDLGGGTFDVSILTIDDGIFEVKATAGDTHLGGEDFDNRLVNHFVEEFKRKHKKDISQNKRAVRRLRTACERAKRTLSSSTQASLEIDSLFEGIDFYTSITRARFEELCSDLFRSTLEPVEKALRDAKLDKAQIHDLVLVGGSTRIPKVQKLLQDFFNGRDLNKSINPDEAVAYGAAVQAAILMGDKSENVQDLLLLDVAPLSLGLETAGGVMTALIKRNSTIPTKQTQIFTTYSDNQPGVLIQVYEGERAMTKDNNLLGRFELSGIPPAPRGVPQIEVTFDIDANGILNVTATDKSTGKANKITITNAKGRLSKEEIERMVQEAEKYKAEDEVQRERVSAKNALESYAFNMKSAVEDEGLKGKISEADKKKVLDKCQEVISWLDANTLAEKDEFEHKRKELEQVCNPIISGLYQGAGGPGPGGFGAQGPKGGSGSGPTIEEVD
# UniProt P0DMV8, whole entry E110D/G484D: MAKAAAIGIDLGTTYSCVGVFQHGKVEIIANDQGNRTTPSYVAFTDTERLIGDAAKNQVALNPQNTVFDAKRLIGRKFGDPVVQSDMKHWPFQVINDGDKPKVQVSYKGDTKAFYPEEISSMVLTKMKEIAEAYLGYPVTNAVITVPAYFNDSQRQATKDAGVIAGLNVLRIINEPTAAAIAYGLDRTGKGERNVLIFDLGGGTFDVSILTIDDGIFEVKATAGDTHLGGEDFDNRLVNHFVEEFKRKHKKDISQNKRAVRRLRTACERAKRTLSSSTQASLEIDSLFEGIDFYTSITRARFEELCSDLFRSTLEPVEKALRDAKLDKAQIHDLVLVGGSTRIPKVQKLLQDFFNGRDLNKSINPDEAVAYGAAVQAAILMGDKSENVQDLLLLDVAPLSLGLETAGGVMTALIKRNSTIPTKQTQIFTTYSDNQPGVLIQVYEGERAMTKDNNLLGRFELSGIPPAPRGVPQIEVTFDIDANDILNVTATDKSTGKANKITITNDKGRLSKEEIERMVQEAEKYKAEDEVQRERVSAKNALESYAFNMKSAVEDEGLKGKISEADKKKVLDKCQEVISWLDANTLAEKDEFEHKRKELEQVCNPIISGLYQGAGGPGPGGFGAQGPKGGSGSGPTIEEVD
# UniProt P0DMV8, whole entry E110D/L394D: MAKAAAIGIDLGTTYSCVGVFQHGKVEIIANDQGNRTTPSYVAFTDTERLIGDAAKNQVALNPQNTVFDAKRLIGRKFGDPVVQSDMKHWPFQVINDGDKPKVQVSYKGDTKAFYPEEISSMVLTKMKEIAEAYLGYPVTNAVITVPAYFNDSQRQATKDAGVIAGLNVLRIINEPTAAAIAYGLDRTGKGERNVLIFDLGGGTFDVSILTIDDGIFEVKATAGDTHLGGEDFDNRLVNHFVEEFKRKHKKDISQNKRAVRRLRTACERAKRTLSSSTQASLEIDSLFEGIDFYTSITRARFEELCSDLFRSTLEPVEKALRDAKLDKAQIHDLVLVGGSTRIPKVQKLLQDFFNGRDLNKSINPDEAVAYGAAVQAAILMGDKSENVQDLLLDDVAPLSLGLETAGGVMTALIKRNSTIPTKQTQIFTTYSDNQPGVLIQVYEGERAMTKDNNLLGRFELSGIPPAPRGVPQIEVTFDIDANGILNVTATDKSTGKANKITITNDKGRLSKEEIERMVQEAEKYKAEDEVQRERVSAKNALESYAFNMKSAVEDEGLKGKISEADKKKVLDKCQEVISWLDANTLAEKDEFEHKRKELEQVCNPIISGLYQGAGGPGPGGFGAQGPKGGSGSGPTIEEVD
# UniProt P0DMV8, whole entry E110D/L401R: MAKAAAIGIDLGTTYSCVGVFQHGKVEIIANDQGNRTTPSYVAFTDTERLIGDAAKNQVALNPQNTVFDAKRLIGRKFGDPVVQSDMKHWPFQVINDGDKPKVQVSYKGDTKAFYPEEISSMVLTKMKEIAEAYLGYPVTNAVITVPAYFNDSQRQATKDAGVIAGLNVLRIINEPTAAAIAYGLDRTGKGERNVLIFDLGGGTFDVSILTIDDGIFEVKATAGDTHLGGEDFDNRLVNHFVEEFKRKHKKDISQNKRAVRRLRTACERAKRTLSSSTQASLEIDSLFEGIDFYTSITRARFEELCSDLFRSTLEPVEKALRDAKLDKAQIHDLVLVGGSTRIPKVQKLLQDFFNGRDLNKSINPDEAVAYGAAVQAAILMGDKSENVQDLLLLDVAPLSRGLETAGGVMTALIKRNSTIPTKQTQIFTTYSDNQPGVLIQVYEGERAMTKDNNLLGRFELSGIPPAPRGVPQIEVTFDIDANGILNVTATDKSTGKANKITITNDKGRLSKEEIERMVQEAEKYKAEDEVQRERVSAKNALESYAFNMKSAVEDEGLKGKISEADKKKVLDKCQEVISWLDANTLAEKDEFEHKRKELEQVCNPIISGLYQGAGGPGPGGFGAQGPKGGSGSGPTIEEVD
# UniProt P0DMV8, whole entry E110D/N505D: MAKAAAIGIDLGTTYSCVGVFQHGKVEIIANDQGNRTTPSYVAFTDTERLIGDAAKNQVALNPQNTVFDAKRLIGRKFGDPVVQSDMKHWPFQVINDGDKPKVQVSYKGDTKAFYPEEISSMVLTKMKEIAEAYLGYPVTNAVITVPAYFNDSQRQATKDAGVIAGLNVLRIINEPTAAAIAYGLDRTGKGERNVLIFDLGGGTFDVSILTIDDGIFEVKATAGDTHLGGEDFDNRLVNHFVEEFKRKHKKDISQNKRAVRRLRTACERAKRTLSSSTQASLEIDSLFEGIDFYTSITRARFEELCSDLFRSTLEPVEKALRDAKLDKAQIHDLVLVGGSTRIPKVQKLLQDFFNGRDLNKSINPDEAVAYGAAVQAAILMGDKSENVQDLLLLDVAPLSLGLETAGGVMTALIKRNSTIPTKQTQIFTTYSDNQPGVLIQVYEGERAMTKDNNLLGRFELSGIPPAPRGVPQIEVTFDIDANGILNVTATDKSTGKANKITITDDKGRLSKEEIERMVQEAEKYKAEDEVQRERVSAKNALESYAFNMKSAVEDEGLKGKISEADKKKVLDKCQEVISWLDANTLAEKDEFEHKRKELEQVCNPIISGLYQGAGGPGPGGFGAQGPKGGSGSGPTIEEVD
# UniProt P0DMV8, whole entry E110D/P398L: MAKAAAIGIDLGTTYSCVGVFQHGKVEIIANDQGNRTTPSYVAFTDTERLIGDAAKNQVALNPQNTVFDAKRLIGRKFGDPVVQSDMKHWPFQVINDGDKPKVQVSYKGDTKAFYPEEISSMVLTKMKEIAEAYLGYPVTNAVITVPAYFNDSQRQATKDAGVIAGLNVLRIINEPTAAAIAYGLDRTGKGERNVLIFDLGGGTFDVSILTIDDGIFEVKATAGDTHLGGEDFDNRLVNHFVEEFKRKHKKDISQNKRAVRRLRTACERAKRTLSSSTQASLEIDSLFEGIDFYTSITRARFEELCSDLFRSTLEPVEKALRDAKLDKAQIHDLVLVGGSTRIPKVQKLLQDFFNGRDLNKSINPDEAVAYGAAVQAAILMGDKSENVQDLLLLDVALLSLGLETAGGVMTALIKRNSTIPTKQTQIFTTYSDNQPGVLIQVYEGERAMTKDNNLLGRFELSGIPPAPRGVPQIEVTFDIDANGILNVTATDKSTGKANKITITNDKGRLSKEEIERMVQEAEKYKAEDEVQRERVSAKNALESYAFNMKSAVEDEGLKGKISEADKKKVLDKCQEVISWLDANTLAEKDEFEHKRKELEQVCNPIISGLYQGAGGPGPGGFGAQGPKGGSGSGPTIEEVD
# Assays:
# [1] = target: ADP-DnaK (WT, aa 1-638) (Escherichia coli, UniProt P0A6Y8); experiment: ITC binding to ADP-bound full-length DnaK; parameters: species or system E. coli; conditions: in words, tested form: bromide
# [2] = target: ADP-HSP70 (WT, aa 1-641) (Homo sapiens, UniProt P0DMV8, E110D); experiment: ITC binding to ADP-bound full-length HSP70; conditions: for Kd: wild-type full-length ADP-bound HSP70, tested form: bromide
# From the text: (§1) The human stress-inducible HSP70 (residues 1-641 or 386-616 of SEQ ID NO: 2) and E. coli DnaK (residues 1-638, 389-607, or 393-507 of SEQ ID NO: 4) were cloned into the pET25 vector (EMD Millipore Chemicals, Inc., Billerica, Mass., USA) between the NdeI and XhoI restriction sites. The full-length HSP70 and DnaK mutants were constructed by PCR-based site-directed mutagenesis using the QuikChange™ Site-Directed Mutagenesis Kit (Agilent Technologies, Inc., Santa Clara, Calif., USA). All plasmid inserts were verified by DNA sequencing. All HSP70 and DnaK variants were produced with a N-terminal His6-tag in the E. coli BL21 Star (DE3) strain (Invitrogen catalog number C6010-03). The resulting strains were grown at 37° C. in LB medium containing 50 μg/mL of carbenicillin (Sigma-Aldrich Co., St. Louis, Mo., USA). At an OD600 about 0.3 to about 0.5, protein expression was induced with 0.5 mM isopropyl-β-D-thiogalactopyranoside (IPTG), and cells were subsequently grown at 25° C. for about 16 h. Cells were collected by centrifugation and resuspended in the Bugbuster® Master Mix (EMD Millipore Chemicals catalog number 71456-4), supplemented with protease inhibitors, 1 mM diethiothreitol (DTT) and 20 mM imidazole. The His6-tagged fusion proteins were isolated on Ni^2+-chelating resins (Ni-NTA Superflow, Qiagen catalog number 30410) by standard procedures. When necessary, size-exclusion chromatography on a Superdex® 200 or a Superose® 6 10/300 GL columns (GE Healthcare) analytical column pre-equilibrated with 1× Dulbecco's Phosphate Buffered Saline (DPBS—Invitrogen 14190-136), 1 mM Tris-HCl (pH 7.4) or 10 mM Tris-HCl (pH 7) was used as the final purification step. The purified DnaK proteins were dialyzed thoroughly against 1× DPBS with 5 mM DTT at 4° C., for crystallization trials involving the small molecule inhibitor PET-16. For isothermal titration calorimetry studies, all HSP70 and DnaK variants were dialyzed extensively against the buffers as noted below under the section entitled “Isothermal Titration calorimetry Studies”. […]
# [3] = target: ATP-HSP70 (WT) (Homo sapiens, UniProt P0DMV8, E110D); experiment: ITC binding to ATP-bound full-length HSP70; conditions: for Kd: wild-type full-length ATP-bound HSP70, tested form: bromide
# From the text: as §1
# [4] = test system: E. coli DH5α; experiment: Growth of E. coli DH5α at 43° C.; type: cell-based; conditions: 6 h at 43° C.; tested form: bromide
# Description: FIGS. 2A-2D illustrate the cytotoxicity of PET-16 to human tumor cells and its inhibition on E. coli growth. FIG. 2A is a line graph with data obtained from MTT assays of human melanoma cell lines treated with the indicated concentrations of PES or PET-16 for 72 h. The corresponding cell survival is normalized to vehicle (DMSO) treatment. Average and standard deviation (s.d.) from three independent experiments are shown. FIG. 2B are bar graphs of human melanoma (A875) cells and nontransformed human (IMR90) fibroblasts that were treated with DMSO, 10 μM PES or 10 μM PET-16 for 24 h. […] FIG. 2C is a line graph illustrating the growth of E. coli DH5α treated with different concentrations of PES or PET-16 for 6 h at 43° C. Error bars represent the s.d. of four independent experiments. FIG. 2D is a bar graph illustrating the growth of E. coli DH5α treated with DMSO, 30 μM PET-16 or 30 μM TPP for 6 h at 43° C. Error bars represent the s.d. of four independent experiments.
# FIGS. 9A-9H illustrate that PET-16 binds directly to ADP-bound HSP70 and is cytotoxic to human tumor cells. FIGS. 9A-9C are ITC assays of the interaction of PET-3C with purified human HSP70-ADP (A), human HSP70-ATP (B) and DnaK-ADP (C) proteins. The data are representative of three independent experiments. […]
# [5] = target: ADP-HSP70 G484D (Homo sapiens, UniProt P0DMV8, E110D/G484D); experiment: ITC, mutated full-length ADP-HSP70; type: binding; conditions: ADP-HSP70 mutant G484D, tested form: bromide
# From the text: (§2) The human stress-inducible HSP70 (residues 1-641 or 386-616 of SEQ ID NO: 2) and E. coli DnaK (residues 1-638, 389-607, or 393-507 of SEQ ID NO: 4) were cloned into the pET25 vector (EMD Millipore Chemicals, Inc., Billerica, Mass., USA) between the NdeI and XhoI restriction sites. The full-length HSP70 and DnaK mutants were constructed by PCR-based site-directed mutagenesis using the QuikChange™ Site-Directed Mutagenesis Kit (Agilent Technologies, Inc., Santa Clara, Calif., USA). All plasmid inserts were verified by DNA sequencing. All HSP70 and DnaK variants were produced with a N-terminal His6-tag in the E. coli BL21 Star (DE3) strain (Invitrogen catalog number C6010-03). The resulting strains were grown at 37° C. in LB medium containing 50 μg/mL of carbenicillin (Sigma-Aldrich Co., St. Louis, Mo., USA). At an OD600 about 0.3 to about 0.5, protein expression was induced with 0.5 mM isopropyl-β-D-thiogalactopyranoside (IPTG), and cells were subsequently grown at 25° C. for about 16 h. Cells were collected by centrifugation and resuspended in the Bugbuster® Master Mix (EMD Millipore Chemicals catalog number 71456-4), supplemented with protease inhibitors, 1 mM diethiothreitol (DTT) and 20 mM imidazole. The His6-tagged fusion proteins were isolated on Ni^2+-chelating resins (Ni-NTA Superflow, Qiagen catalog number 30410) by standard procedures. When necessary, size-exclusion chromatography on a Superdex® 200 or a Superose® 6 10/300 GL columns (GE Healthcare) analytical column pre-equilibrated with 1× Dulbecco's Phosphate Buffered Saline (DPBS—Invitrogen 14190-136), 1 mM Tris-HCl (pH 7.4) or 10 mM Tris-HCl (pH 7) was used as the final purification step. The purified DnaK proteins were dialyzed thoroughly against 1× DPBS with 5 mM DTT at 4° C., for crystallization trials involving the small molecule inhibitor PET-16. For isothermal titration calorimetry studies, all HSP70 and DnaK variants were dialyzed extensively against the buffers as noted below under the section entitled “Isothermal Titration calorimetry Studies”. The dialyzed proteins were subsequently microcentrifugated at 15,000×g for 5 min at 4° C. and aliquots of the soluble proteins were stored at −80° C.
# (§3) All ITC experiments were performed using a MicroCal VP-ITC isothermal titration calorimeter (MicroCal). Both full-length HSP70 and DnaK proteins and DnaK (aa 393-507) proteins were prepared in 1 mM Tris-HCl (pH 7.4) buffer containing 3% dimethylsulfoxide (DMSO). The HSP70 (aa 386-616) protein was prepared in buffer containing 3% DMSO and 10 mM Tris-HCl, pH 7. The syringe was loaded with purified protein in either 1 mM Tris-HCl (pH 7.4) buffer containing 3% DMSO or 10 mM Tris-HCl (pH 7) buffer containing 3% DMSO. The sample cell of the calorimeter was loaded with PES, PET-16 or NRLLLTG (SEQ ID NO: 7) prepared in the same buffer. All solutions were degassed for 5 min.
# (§4) The titrations involving the full-length purified proteins were performed at 25° C. with injection volumes of 12 μL and a spacing of 300 s. The titrations involving the purified HSP70 (aa 386-616) and DnaK (aa 393-507) were performed at 42° C. with injection volumes of 12 μL and a spacing of 300 s. Heat from the pre-injection was not used during fitting. The data were fit using a one-site binding model available in the Origin® ITC data analysis software (MicroCal Origin® V5.0, MicroCal Software, Northampton, Mass.). Error values obtained from the MicroCal Origin® V5.0 software were averaged and reported.
# (§5) The information from crystal structure analysis pointed to particular amino acid residues as potential contact sites for interaction with PET-16. Single point mutants were thereby introduced in the context of a full-length DnaK protein, as well as at the corresponding residues within HSP70; these mutant proteins were analyzed by ITC for ability to bind to PET-16. The DnaK mutations included residues L392D, P396L, L399R, G482D, A503D and […]; those in HSP70 were L394D, P398L, L401R, G484D, N505D and D506A. […]
# [6] = target: ADP-HSP70 P398L (Homo sapiens, UniProt P0DMV8, E110D/P398L); experiment: ITC, mutated full-length ADP-HSP70; type: binding; conditions: ADP-HSP70 mutant P398L, tested form: bromide
# From the text: as §2, §3, §4, §5
# [7] = target: ADP-HSP70 L394D (Homo sapiens, UniProt P0DMV8, E110D/L394D); experiment: ITC, mutated full-length ADP-HSP70; type: binding; conditions: ADP-HSP70 mutant L394D, tested form: bromide
# From the text: as §2, §3, §4, §5
# [8] = target: ADP-HSP70 L401R (Homo sapiens, UniProt P0DMV8, E110D/L401R); experiment: ITC, mutated full-length ADP-HSP70; type: binding; conditions: ADP-HSP70 mutant L401R, tested form: bromide
# From the text: as §2, §3, §4, §5
# [9] = target: ADP-HSP70 N505D (Homo sapiens, UniProt P0DMV8, E110D/N505D); experiment: ITC, mutated full-length ADP-HSP70; type: binding; conditions: ADP-HSP70 mutant N505D, tested form: bromide
# From the text: as §2, §3, §4, §5
# [10] = target: ADP-HSP70 D506A (Homo sapiens, UniProt P0DMV8, D506A/E110D); experiment: ITC, mutated full-length ADP-HSP70; type: binding; conditions: ADP-HSP70 mutant D506A, tested form: bromide
# From the text: as §2, §3, §4, §5
# [11] = test system: human melanoma cell line 1205 Lu; experiment: MTT assay of human melanoma cell line 1205 Lu; conditions: 72 h (FIG. 9D), tested form: bromide
# Description: FIGS. 9A-9H illustrate that PET-16 binds directly to ADP-bound HSP70 and is cytotoxic to human tumor cells. FIGS. 9A-9C are ITC assays of the interaction of PET-3C with purified human HSP70-ADP (A), human HSP70-ATP (B) and DnaK-ADP (C) proteins. The data are representative of three independent experiments. FIG. 9D is a line graph of an MTT assay of the human melanoma cell line 1205 Lu treated with the indicated concentrations of PET-16 (---) or PET-3C (-) for 72 h. The corresponding cell survival is normalized to the DMSO-treatment. Average and standard deviation (s.d.) from three independent experiments are shown. FIG. 9E is a line graph illustrating the growth of E. coli DH5α strain treated with different concentrations of PET-16 (black) or PET-3C (gray) for 6 h at 43° C. Error bars represent the s.d. of four independent experiments. FIG. 9F is a bar graph illustrating the growth of E. coli DH5α treated with DMSO, 30 μM PET-16, 30 μM PET-3C or 30 μM TPP for 6 h at 43° C. Error bars represent the s.d. of four independent experiments. FIGS. 9G and 9H are ITC measurement of the interaction of PET-DR with purified human HSP70-ADP (G) and human HSP70-ATP (H) proteins. The data are representative of three independent experiments.
structure (smiles),measurement,setting,value
C(#C[P+](c1ccccc1)(c1ccccc1)c1ccccc1)c1cccc2ccccc12,binding to DnaK,[1],does not exhibit a good binding affinity
same,Kd,[2],61 µM
same,Kd,[3],191 µM
same,effect on growth of E. coli,[4],little effect
C(#Cc1ccccc1)CCC[P+](c1ccccc1)(c1ccccc1)c1ccccc1,binding to DnaK,[1],binds much less well
same,binding to HSP70,"[2]; in words, tested form: bromide",able to bind to HSP70
same,Kd,[2],4.9 µM
same,interaction with ATP-bound HSP70,"[3]; in words, tested form: bromide",notably reduced interaction
same,Kd,[3],71.7 µM
same,Kd,[5],97.9 µM
same,Kd,[6],37.2 µM
same,Kd,[7],30.3 µM
same,Kd,[8],60.4 µM
same,Kd,[9],90.8 µM
same,Kd,[10],85 µM
same,effect on growth of E. coli,[4],much less effective
same,killing of tumor cells relative to non-transformed cells,[11],preferentially kills tumor cells
